The values below come from paper PMC3361267 (Journal of Medicinal Chemistry, 2012).

For one assay, the target named is T1, OATP2B1 (Homo sapiens, UniProt O94956).
T1 sequence (O94956 1-709): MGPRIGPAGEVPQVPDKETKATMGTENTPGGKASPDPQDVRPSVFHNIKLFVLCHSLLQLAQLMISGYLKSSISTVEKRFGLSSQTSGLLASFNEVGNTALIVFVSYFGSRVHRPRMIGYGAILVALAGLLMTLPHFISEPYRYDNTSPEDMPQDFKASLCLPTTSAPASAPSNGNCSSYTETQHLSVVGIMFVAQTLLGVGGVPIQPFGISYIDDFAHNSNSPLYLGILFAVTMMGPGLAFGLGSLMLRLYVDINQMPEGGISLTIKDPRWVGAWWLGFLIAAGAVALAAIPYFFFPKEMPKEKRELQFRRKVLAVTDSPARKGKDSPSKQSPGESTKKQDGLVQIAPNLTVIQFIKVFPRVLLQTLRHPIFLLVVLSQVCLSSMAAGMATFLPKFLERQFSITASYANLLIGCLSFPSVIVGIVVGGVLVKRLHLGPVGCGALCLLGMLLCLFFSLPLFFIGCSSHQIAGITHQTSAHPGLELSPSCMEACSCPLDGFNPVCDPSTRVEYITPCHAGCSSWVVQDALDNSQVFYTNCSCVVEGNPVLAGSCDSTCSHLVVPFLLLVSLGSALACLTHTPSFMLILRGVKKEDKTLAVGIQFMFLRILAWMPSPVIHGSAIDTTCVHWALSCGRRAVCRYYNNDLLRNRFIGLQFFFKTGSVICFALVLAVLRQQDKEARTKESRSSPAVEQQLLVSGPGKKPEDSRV
The conditions noted are these: 10 μM inhibitor.

The test system of the next assay is All OATPs. Also noted: species or system human. The conditions noted are these: 10 μM inhibitor.

On to `CO[C@H]1/C=C/O[C@@]2(C)Oc3c(C)c(O)c4c(O)c(c(/C=N/N5CCN(C)CC5)c(O)c4c3C2=O)NC(=O)/C(C)=C\C=C\[C@H](C)[C@H](O)[C@@H](C)[C@@H](O)[C@@H](C)[C@H](OC(C)=O)[C@@H]1C` [rifampicin, Rifampin], for which the “increase of the OATP2B1 contribution to the uptake CL of atorvastatin” value at OATP2B1 is “up to 6 fold”.

Consider `C#Cc1cccc(Nc2ncnc3cc(OCCOC)c(OCCOC)cc23)c1` [erlotinib, Erlotinib], for which, at OATP2B1, the “reduction of atorvastatin uptake by OATP2B1” value is given as 95%. Moreover, in the assay with All OATPs, the “reduction of the overall CLint,uptake of atorvastatin” value amounted to 32%.
